Measurements from paper PMC5383603 (Journal of Korean Medical Science, 2017).

Key:
intragastric pH = experiment: 24-hour intragastric pH monitoring after omeprazole by CYP2C19 phenotype; assay type: in vivo, healthy Korean volunteers; conditions: mean ± SD
CYP2C19 = conditions: greater for CYP2C19 than for CYP3A4; cited from earlier work
[1] = multiple dosing, 20 mg oral once daily for 8 days, EM (n = 8)
[2] = multiple dosing, 20 mg oral once daily for 8 days, IM (n = 8)
[3] = multiple dosing, 20 mg oral once daily for 8 days, PM (n = 8)
[4] = single dosing, 20 mg oral, EM (n = 8)
[5] = single dosing, 20 mg oral, IM (n = 8)
[6] = single dosing, 20 mg oral, PM (n = 8)

## COc1ccc2[nH]c([S+]([O-])Cc3ncc(C)c(OC)c3C)nc2c1 (stereo not shown) [omeprazole]
Intragastric pH; [1]
  % time gastric pH above 4.0: 42.23 ± 19.03%
  Change of mean pH: 1.81 ± 1.02
Intragastric pH; [2]
  % time gastric pH above 4.0: 53.90 ± 12.10%
  Change of mean pH: 2.19 ± 0.74
Intragastric pH; [3]
  % time gastric pH above 4.0: 78.99 ± 15.79%
  Change of mean pH: 3.45 ± 0.72
Intragastric pH; [4]
  % time gastric pH above 4.0: 19.66 ± 17.07%
  Change of mean pH: 0.71 ± 0.78
Intragastric pH; [5]
  % time gastric pH above 4.0: 21.43 ± 7.79%
  Change of mean pH: 0.78 ± 0.70
Intragastric pH; [6]
  % time gastric pH above 4.0: 66.83 ± 14.06%
  Change of mean pH: 2.84 ± 0.48
CYP2C19
  affinity for CYP2C19 relative to CYP3A4: approximately 10 times
